Data from patent publication US20210395311A1, “CYCLIC PEPTIDE DIMERS” (New York University, priority 2019, published 2021).

Experiment: Solubility of the synthetic peptides
Format: physicochemical
Settings: 10% acetonitrile in water was used to dissolve
From the text: Peptide 324822 was not the precursor of peptide 326573. It was synthesized separately. For 324822, protected linear peptide was cleaved from resin and cyclized in DMF following the above procedure. After removing the protecting groups, the peptide was isolated by RP-HPLC purification. Both peptides were not soluble in 100% aqueous solution. 10% acetonitrile in water was used to dissolve the peptides.

With “c (Gly-Met (O)-Met (O)-Cys-Val-Thr-His-Cys-Asn-Gly (SEQ ID NO:1, where the methionine residues are oxidized)) [compound 326573]” the “solubility in 100% aqueous solution” value was “not soluble”.
